{"sequences": {"note": "Sequences of proteins named here, by UniProt entry; tags and fusion partners are left off.", "UniProt Q51990, entry or part of it": "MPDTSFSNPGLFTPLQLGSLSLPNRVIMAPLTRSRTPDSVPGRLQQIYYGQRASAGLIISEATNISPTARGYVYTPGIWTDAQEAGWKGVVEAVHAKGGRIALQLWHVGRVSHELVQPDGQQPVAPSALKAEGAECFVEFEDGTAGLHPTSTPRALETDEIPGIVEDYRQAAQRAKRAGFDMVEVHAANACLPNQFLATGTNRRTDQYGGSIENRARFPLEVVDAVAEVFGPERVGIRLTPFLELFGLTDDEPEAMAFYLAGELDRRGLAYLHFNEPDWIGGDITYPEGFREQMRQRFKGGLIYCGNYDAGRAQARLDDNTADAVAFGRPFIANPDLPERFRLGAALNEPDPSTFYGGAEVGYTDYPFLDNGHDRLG"}, "source": "patent US5571685A", "about": "(priority 1992, dated 1996)", "biological_target": "morphinone reductase (Pseudomonas putida, UniProt Q51990)", "conditions": "reverse reaction"}
{"smiles": "CN1CC[C@]23c4c5ccc(O)c4O[C@H]2C(=O)CC[C@H]3[C@H]1C5", "note": "[hydromorphone]", "values": [{"measurement": "Enzyme activity in the reverse direction", "value": "No activity in the reverse direction"}]}
